Laboratory results: patent publication US10513559B2, “Amatoxin-armed therapeutic cell surface binding components designed for tumour therapy” (Deutsches Krebsforschungszentrum, priority 2009, dated 2019)

Key:
Type in all cases: cell-based
Details in all cases: 72 h and 120 h
[1] = system: SKOV-3 (Her2/neu positive); assay: in vitro BrdU incorporation, SKOV-3
Protocol: (§1) Inhibition of cell growth by amanitin-Herceptin conjugates was determined by in vitro BrdU incorporation as described in Current Protocols in Immunology 1 (see chapter 7.10. Coligan, J. E. et al., eds.) John-Wiley & Sons, New York). […] (See FIGS. 11A to 11D). The indicated molar concentration is indicated on the basis of the entire amanitin comprised in the respective conjugate.

[2] = system: NCI-N87 (Her2/neu positive); assay: in vitro BrdU incorporation, NCI-N87
Protocol: as §1

[3] = system: SK-BR-3 (Her2/neu positive); assay: in vitro BrdU incorporation, SK-BR-3
Protocol: as §1

[4] = system: MDA-MB231 (Her2/neu negative); assay: in vitro BrdU incorporation, MDA-MB231
Protocol: as §1

Measured: cytotoxicity (in words)

Herceptin: recombinant humanized IgG1 kappa monoclonal antibody binding the extracellular domain of HER2
no cytotoxicity: [1] | [2] | [3] | [4]
